Results on 1 substance are retold here after patent publication US7217511B2, “Methods of increasing antibiotic production in Streptomyces by deletion of the scbA gene” (Plant Bioscience Limited, priority 2000, dated 2007).

The assay concerns ScbR. Briefly: Gel retardation assay: ScbR binding to the scbA/scbR promoter fragment. The conditions noted are these: 1 μg (or equivalent amount) added; JM101/pIJ6120 crude extract; labelled scbA/scbR promoter fragment.

Regarding virginiae butanolides, the “Formation of the DNA-protein complex (DNA-binding activity of ScbR)” value was “failed to inhibit”.
